Results published in ChEMBL document CHEMBL1142040, “Melanocortin subtype-4 receptor agonists containing a piperazine core with substituted aryl sulfonamides” (Bioorg Med Chem Lett, 2005).

Amino acid sequences for entries named in this document (tags omitted). A change or cut given only in a name is not applied to a line headed by its entry.
UniProt P32245, whole entry, looked up: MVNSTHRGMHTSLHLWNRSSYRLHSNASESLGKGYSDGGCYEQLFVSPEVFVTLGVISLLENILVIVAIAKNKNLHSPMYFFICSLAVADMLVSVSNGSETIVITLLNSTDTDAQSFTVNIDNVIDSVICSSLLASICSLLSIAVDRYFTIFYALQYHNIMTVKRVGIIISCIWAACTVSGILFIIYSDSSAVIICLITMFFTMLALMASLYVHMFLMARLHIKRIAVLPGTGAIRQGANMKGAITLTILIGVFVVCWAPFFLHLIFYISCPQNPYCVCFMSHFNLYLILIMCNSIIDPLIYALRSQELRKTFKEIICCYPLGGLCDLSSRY
UniProt P33032: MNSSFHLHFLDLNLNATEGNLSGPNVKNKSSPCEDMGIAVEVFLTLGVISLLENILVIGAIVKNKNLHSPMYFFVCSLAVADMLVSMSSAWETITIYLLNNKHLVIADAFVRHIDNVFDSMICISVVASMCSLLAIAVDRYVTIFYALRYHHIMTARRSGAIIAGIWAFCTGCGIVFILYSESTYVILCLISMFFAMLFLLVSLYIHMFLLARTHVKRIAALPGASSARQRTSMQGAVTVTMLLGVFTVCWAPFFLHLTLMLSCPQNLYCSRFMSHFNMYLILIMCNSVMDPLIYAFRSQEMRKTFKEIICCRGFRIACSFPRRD

Target: Melanocortin receptor (M4 and M5) (Homo sapiens) (UniProt P32245+P33032)
Assay: Selectivity for melanocortin 4 receptor compared to melanocortin 5 receptor in vitro
Assay type: functional

Selectivity: 490
Compound: CCCN(c1ccccc1N1CCN(C(=O)[C@@H](Cc2ccc(Cl)cc2)NC(=O)[C@@H]2Cc3ccccc3CN2)CC1)S(C)(=O)=O
